Laboratory results taken from ChEMBL document CHEMBL4619776, “Probing the Plasticity in the Active Site of Protein N-terminal Methyltransferase 1 Using Bisubstrate Analogues” (J Med Chem, 2020).
Activity calls are given as the source filed them. The rule behind the calls is not given here.

Assays:
[1] = target: T1, N-terminal Xaa-Pro-Lys N-methyltransferase 1 (Homo sapiens) (UniProt Q9BV86); assay: Substrate activity at NTMT1 (unknown origin) assessed as compound methylation at 10 uM incubated overnight by MALDI-MS methylation assay
T1 sequence (whole entry): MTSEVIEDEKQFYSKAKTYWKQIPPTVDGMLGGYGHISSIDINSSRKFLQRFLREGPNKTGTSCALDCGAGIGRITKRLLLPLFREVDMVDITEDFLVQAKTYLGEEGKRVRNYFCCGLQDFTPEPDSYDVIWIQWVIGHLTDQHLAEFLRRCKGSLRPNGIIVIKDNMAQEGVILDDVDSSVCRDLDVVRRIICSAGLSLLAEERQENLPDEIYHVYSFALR
Method in brief: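 Compound (10 µM) incubated overnight at 37 °C with 0.1 µM NTMT1 and 3 µM SAM in 20 mM Tris pH 7.5, 50 mM KCl. Quenched 1:1 with 20 mM NH4H2PO4, 0.4% TFA in 1:1 acetonitrile/water. Methylated compound detected by MALDI-MS with 2,5-dihydroxybenzoic acid matrix.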

[2] = target: T1, N-terminal Xaa-Pro-Lys N-methyltransferase 1 (Homo sapiens); settings: 50 nM
[3] = target: T1, N-terminal Xaa-Pro-Lys N-methyltransferase 1 (Homo sapiens); settings: 200 nM

SMILES	Activity [1]	inhibition [2]	inhibition [3]
CC[C@H](C)[C@H](NC(=O)[C@H](CCCNC(=N)N)NC(=O)[C@H](CCCCN)NC(=O)[C@@H]1CCCN1C(=O)CNCCCCCN(CC[C@H](N)C(=O)O)C[C@H]1O[C@@H](n2cnc3c(N)ncnc32)[C@H](O)[C@@H]1O)C(=O)N[C@@H](C)C(N)=O	Active		
CC[C@H](C)[C@H](NC(=O)[C@H](CCCNC(=N)N)NC(=O)[C@H](CCCCN)NC(=O)[C@@H]1CCCN1C(=O)CNCCCCN(CC[C@H](N)C(=O)O)C[C@H]1O[C@@H](n2cnc3c(N)ncnc32)[C@H](O)[C@@H]1O)C(=O)N[C@@H](C)C(N)=O		Active	Active
